This note sets out measurements from article PMC7429263 (ACS infectious diseases, 2020).

Converted amounts (≈) assume the structure as drawn. Where two headings read alike, the source gives them in different places.

Data set [1] deals with VanB E. faecalis ATCC 51299. The data set can be described thus: standard microdilution antimicrobial assay. The class given is cell-based. (In general: In broth dilution the organism is exposed to a series of concentrations in liquid medium.)
The test system of data set [2] is Sensitive S. aureus ATCC 25923. The data set can be described thus: standard microdilution antimicrobial assay. The class given is cell-based.
In data set [3] the test system is MRSA S. aureus ATCC 43300. The data set can be described thus: standard microdilution antimicrobial assay. It counts as cell-based.
Data set [4] concerns VanA VRE E. faecium ATCC BAA-2317. The class given is cell-based.
For data set [5], the system named is VanA VRE E. faecalis BM 4166 and E. faecium ATCC BAA-2317. The data set can be described thus: microdilution antimicrobial assay with added LTA or other additives. The class given is cell-based. Conditions: 100 μg/mL LTA.
Data set [6] deals with VanA VRE E. faecalis BM 4166.
The subject of data set [7] is VanA VRE E. faecalis BM 4166 and E. faecium ATCC BAA-2317. Kind of data set: bacteria cell membrane permeability assay. Particulars: 10 μM added at 5 min.

Regarding `CN[C@H](CC(C)C)C(=O)N[C@H]1C(=O)N[C@@H](CC(N)=O)C(=O)N[C@H]2C(=O)N[C@H]3C(=O)N[C@H](C(=O)N[C@H](C(=O)NCc4ccc(NC(=N)N)cc4)c4cc(O)cc(O)c4-c4cc3ccc4O)[C@H](O)c3ccc(c(Cl)c3)Oc3cc2cc(c3OC2OC(CO)C(O)[C@H](O)C2O[C@H]2CC(C)(NCc3ccc(-c4ccc(Cl)cc4)cc3)[C@H](O)[C@H](C)O2)Oc2ccc(cc2Cl)[C@H]1O` (stereo partly drawn) [GBn-CBP-vancomycin (19)], the MIC in data set [1] amounted to 0.04 µg/mL (≈ 0.0223 µM); in data set [2], 0.04 µg/mL (≈ 0.0223 µM); in data set [3] it was 0.02 µg/mL (≈ 0.0111 µM); in data set [4] (ATCC BAA-2317, +LTA 100 μg/mL), 2.5 µg/mL (≈ 1.39 µM); in data set [4] (ATCC BAA-2317, −LTA), 0.3 µg/mL (≈ 0.167 µM); in data set [6] (BM 4166, +LTA 100 μg/mL) it was 5 µg/mL (≈ 2.78 µM). The compound further yielded a minimum inhibitory concentration (MIC) in data set [6] (BM 4166, −LTA) of 0.6 µg/mL (≈ 0.334 µM). For the same compound, the “decrease of antimicrobial activity with added LTA” value in data set [5] came out at 8 fold. In addition, the “induced cell membrane permeabilization, in words” value in data set [7] was “strong membrane permeabilization”.

As a reminder, the MIC is the lowest concentration that inhibits growth of the organism. The low end stands for inhibition by little substance, the high end for a need for much substance.
